Consider one compound from patent publication EP1673354B1, “ARYLINDENOPYRIDINES AND ARYLINDENOPYRIMIDINES AND THEIR USE AS ADENOSINE A2A RECEPTOR ANTAGONISTS” (Ortho-McNeil Pharmaceutical, Inc., priority 2003, dated 2005).

Amino acid sequences for entries named in this document (tags omitted).
UniProt P30542, whole entry: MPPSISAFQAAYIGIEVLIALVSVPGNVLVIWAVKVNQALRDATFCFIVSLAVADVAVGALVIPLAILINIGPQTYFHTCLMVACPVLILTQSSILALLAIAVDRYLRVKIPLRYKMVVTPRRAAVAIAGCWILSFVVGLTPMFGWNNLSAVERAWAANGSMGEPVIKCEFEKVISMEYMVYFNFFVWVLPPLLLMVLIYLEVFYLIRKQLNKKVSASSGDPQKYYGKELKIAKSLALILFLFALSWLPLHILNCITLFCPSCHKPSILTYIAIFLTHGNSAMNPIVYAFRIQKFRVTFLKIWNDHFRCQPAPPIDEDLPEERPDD

The target of this assay is Adenosine A1 receptor (Homo sapiens, UniProt P30542). Briefly: A1 antagonist function (no method described). It is filed as cell-based.

As to `Nc1nc(-c2cccs2)c2c(n1)-c1ccccc1C2=O` [Compound 14, 2-amino-4-thiophen-2-yl-indeno[1,2-d]pyrimidin-5-one], the Ki is 3.19 nM.

For orientation: Ki means the equilibrium dissociation constant of an inhibitor or competing ligand from its target.
